Assay results: paper PMC5754923 (Journal of medicinal chemistry, 2017)

Tests used:
Vγ9Vδ2 T cells = experiment: Expansion of Vγ9Vδ2 T cells from peripheral blood; format: cell-based, human; conditions: for Fold difference from HMBPP: EC50 ratio
K562 cells = experiment: Vγ9Vδ2 T cell mediated lysis of K562 cells; conditions: 2 hour treatment/4 hour co-culture

SMILES | Selectivity index (Vγ9Vδ2 T cells; IC50 / EC50 in expansion assay) | Fold difference from HMBPP, lysis (K562 cells) [x] | Fold difference from HMBPP (Vγ9Vδ2 T cells) [x]
C/C(=C\CCP(=O)([O-])CP(=O)([O-])[O-])CO.[Na+].[Na+].[Na+] [Compound 10, Sodium (E)-(((5-hydroxy-4-methylpent-3-en-1-yl)oxidophosphoryl)methyl)phosphonate] | >3.8 |  | 
CC(C)=CCCP(=O)([O-])CP(=O)([O-])[O-].[Na+].[Na+].[Na+] [Compound 8, Sodium (((4-methylpent-3-en-1-yl)oxidophosphoryl)methyl)phosphonate] |  | <0.000016 | <0.0000051
COP(=O)(CC/C=C(\C)CO)CP(=O)(OC)OC (centres unmarked) [Compound 9, Dimethyl (E)-(((5-hydroxy-4-methylpent-3-en-1-yl)(methoxy)phosphoryl)methyl)phosphonate] |  | <0.000016 | <0.0000051
